Results on one compound are retold here after patent EP2492354A1, “Method for identifying compounds useful in the treatment of photosensitive reflex epilepsy” (Institut National De La Recherche Agronomique (INRA), priority 2011, dated 2012).

SMILES strings stand for the structures.

The test system of this test is Fepi. Kind of test: Intermittent Light Stimulation (ILS) induced seizures in the photosensitive reflex epileptic chicken model. The format is in vivo. The conditions noted are these: treated (50, 100 or 2000 mg/Kg, intraperitoneal, 10 days) versus placebo homozygous; ILS 14 flashes per second; p-value 9 e-07. Here is the method:
The inventors have tested the antiepileptic effect of LEVETIRACETAM (Keppra®, UCB PHARMA) in the chicken model according to the invention.
71 Fepi 3-5 months old and identified for ILS seizures at the birth were tested with LEVETIRACETAM.
During 21 days, they were exposed to ILS (3 minutes) once a day.
Behavioural activities were observed and time recorded for each phase of the paroxysmal manifestation during controlled intermittent light stimulation: • T0: ILS starts • T1 (time in seconds): neck myoclonus starts • T2 (time in seconds): convulsive phase starts • T3 (time in seconds): convulsive phase ends
The first day they were tested for control and all had ILS induced seizures.
The following 10 days all the animals received an intraperitoneal injection, 18 animals with 200 mg/kg of LEVETIRACETAM, 17 with 100 mg/kg, and 18 with 50 mg/kg, while 18 control animals received a placebo injection. […]
During the last 10 days, none of the animals was treated.
The influence of the treatment on the stimulus locked myoclonus and generalized convulsions of the photosensitive GRS was evaluated using generalized linear models implemented in the function glm of the software R, version 2.9.0. The number of seizures for each animal over a given phase of the experiment (with treatment and following treatment) was modeled using a binomial distribution, and linked to factors using the logit function. […]

Regarding `CC[C@@H](C(N)=O)N1CCCC1=O` [LEVETIRACETAM, (S)-a-ethyl-2-oxo-1-pyrrolidine acetamide], the “seizure number (odds ratio)” value was determined as 0.03.
